Experimental data published in patent US6623741B1, “Methods and compositions for inhibition of membrane fusion-associated events including RSV transmission” (Trimeris, Inc., priority 2000, dated 2003).

Chains of the proteins cited; added tags and fusions are not shown. Residues count along the entry.
UniProt P03420, 142-302: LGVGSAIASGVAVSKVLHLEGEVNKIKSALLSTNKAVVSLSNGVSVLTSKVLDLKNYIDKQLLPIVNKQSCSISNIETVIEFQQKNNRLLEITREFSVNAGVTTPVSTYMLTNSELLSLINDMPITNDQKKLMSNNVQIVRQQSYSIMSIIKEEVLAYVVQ

Columns and labels:
[1] = target: T1, DP107-like domain of the RSV F1-protein (MF5.1 fusion protein) (Human respiratory syncytial virus A, UniProt P03420); assay: biochemical; type: binding
T1 construct: made in house
Experimental: After incubation and washing, unbound Fab-d is removed from the plates and bound Fab-d is quantitated. A no-inhibitor control should also be conducted.
Such an assay takes advantage of accepted radioligand and receptor binding principles. (See, for example, Yamamura, H. I. et al., 1985, “Neurotransmitter Receptor Binding”, 2nd ed., Raven Press, NY.) As above, M41Δ78 is immobilized onto a solid support such as a microtiter well. […] Specific binding to M41Δ78 is defined as the difference of the binding of the labeled DP178 preparation in the microtiter wells (totals) and the binding in identical wells containing, in addition, excess unlabeled DP178 (nonspecifics).
Specifically, the DNA sequence corresponding amino acid residues 142-302 of the RSV F1 protein was amplified by PCR and cloned into the Xmn I site of the expression vector pMal-p2 (New England Biolab) to give MF5.1. These amino acid residues correspond to the extracellular domain of the RSV F1 protein including its DP107 region but excluding the DP178 region.
Cell fusion assays were performed with each of the peptides as described in Section 17 above.

RSV = assay: Anti-RSV antiviral activity assay (syncytial formation, HEp2 cells); type: cell-based, respiratory syncytial virus; conditions: purified peptides
Experimental: Anti-RSV Antiviral Activity Assays:
The assay utilized herein tested the ability of the peptides to disrupt the ability of HEp2 cells acutely infected with RSV (i.e., cells which are infected with a multiplicity of infection of greater than 2) to fuse and cause syncytial formation on a monolayer of uninfected an uninfected line of Hep-2 cells. The lower the observed level of fusion, the greater the antiviral activity of the peptide was determined to be. […]
After incubation, cells in control wells were checked for fusion centers, media was removed from the wells, followed by addition, to each well, of either Crystal Violet stain or XTT. […] The number of syncytia per well were then counted, using a dissecting microscope.
With respect to XTT (2,3-bis[2-Methoxy-4-nitro-5-sulfophenyl]-2H-tetrazolium-5-carboxyanilide inner salt), 50 μl XTT (1 mg/ml in RPMI buffered with 100 mM HEPES, pH 7.2-7.4, plus 5% DMSO) were added to each well. The OD450/690 was measured (after blanking against growth medium without cells or reagents, and against reagents) according to standard procedures. […]

Structure (SMILES): CC[C@H](C)[C@H](NC(=O)[C@H](Cc1ccccc1)NC(=O)[C@H](C)NC(=O)[C@H](CC(C)C)NC(=O)[C@H](CO)NC(=O)[C@H](CCC(N)=O)NC(=O)[C@H](CC(N)=O)NC(=O)[C@@H](NC(=O)[C@H](CCCCN)NC(=O)[C@H](CCC(=O)O)NC(=O)[C@H](CC(N)=O)NC(=O)[C@@H](NC(=O)[C@H](CCC(N)=O)NC(=O)[C@H](CO)NC(=O)[C@@H](NC(=O)[C@H](CO)NC(=O)[C@H](C)NC(=O)[C@H](CC(=O)O)NC(=O)[C@H](Cc1ccccc1)NC(=O)[C@H](CCC(=O)O)NC(=O)[C@H](CC(=O)O)NC(C)=O)[C@@H](C)CC)C(C)C)[C@@H](C)CC)C(=O)N[C@@H](CCCNC(=N)N)C(=O)N[C@@H](CCCCN)C(=O)N[C@@H](CO)C(=O)N[C@@H](CC(=O)O)C(=O)N[C@@H](CCC(=O)O)C(=O)N[C@@H](CC(C)C)C(=O)N[C@@H](CC(C)C)C(N)=O [Peptide T67]
- binding affinity relative to T112 [1]: five times lower
- Kd ([1]; binding affinity for the DP107-like domain of RSV F1 protein): 5 nM
- anti-RSV antiviral activity (in words) (RSV): potent anti-viral activity
